Measured values reported in PubChem BioAssay AID492997 (Johns Hopkins Ion Channel Center, 2010).
This is a selection; strong and weak results do not stand in their true shares. Activity calls are given as the source filed them.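 The calls were made as follows: active = thallium signal drop beyond 5 SD of the untreated control mean, on both duplicate plates; inactive = the rest.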

Experiment: thallium flux in non-induced HEK293 cells, confirmation, counter-screen for KCNK9 inhibitor project, cell-based, second counter screen, non-induced KCNK9-HEK293 (AID 492997);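 also: plate controls were buffer only IC0 wells for no effect and SID17386958 at its maximal inhibitory level for full effect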
Conditions: non-induced KCNK9-HEK293, FluxOR thallium flux; at 10 µM; stronger effect = higher value

Row | SMILES | inhibition
1 | O=P(Nc1nccs1)(c1ccccc1)c1nc2ccccc2s1 (stereo unspecified) | active: 25%
